Laboratory results taken from publication PMC6044831 (ACS Omega, 2018).

How the values were obtained:
[1] = cited from earlier work
[2] = Biodistribution of radioiodinated HSA in normal ICR male mice; assay type: in vivo; conditions: iv tail vein, 1 μCi, n = 5, gamma counter

| Substance | time stable at high temperature ([1]; 60 °C) [h] | pH levels at which stable [1] | accumulation of radioactivity in the thyroid (indicates in vivo deiodination) ([2]; 24 h post iv injection) [% ID/g] | accumulation of radioactivity in the thyroid (indicates in vivo deiodination) ([2]; 36 h post iv injection) [% ID/g] |
| --- | --- | --- | --- | --- |
| HSA: human serum albumin protein purchased from Sigma-Aldrich | 10 | 4–9 |  |  |
| [^125I] 10: HSA radioiodinated via a tyrosine ring using [^125I] NaI and chloramine-T [reference compound] |  |  | 255.1 ± 66.21 | 395.2 ± 59.98 |
